{"source": "patent US20160157479A1", "about": "“ANTIFUNGAL COMPOSITION AND METHOD” (OMEX INTERNATIONAL LIMITED, priority 2013, published 2016)", "format_in_all_cases": "physicochemical", "key": {"[1]": {"assay": "Light-fastness study, addition of ascorbic acid", "conditions": "0.1% vanillin, 1500 Lux 5 hours per day", "description": "The formulations used for these experiments are described in TABLE 10. Oxynex ST (5%) and Oxynex ST (5%) with ascorbic acid (1%) were added to the composition to determine the effect on photostability.\n(§1) Method: Formulations were diluted with water to 0.1% vanillin and 5 mL transferred by pipette to a 100 mL crystallising dish. All dishes were placed in a light box containing two 60 cm high efficiency 24 W fluorescent bulbs housed in a canopy to provide bright, full spectrum lighting closely resembling daylight (6400 Kelvin). The dishes were covered with muslin sheets to reduce the intensity of the light to 1500 Lux on a programme of 5 hours per day. At specific time intervals the dishes were extracted and made up to volume with methanol. Samples were analysed by HPLC."}, "[2]": {"assay": "Light-fastness study (Oxynex ST photostabiliser)", "conditions": "0.1% vanillin, light box 5000 lux", "description": "A composition without any photostabiliser was used as a base composition (no photostabiliser). Various amounts of Oxynex ST (2.5%, 5% and 10%) were added to the base composition to determine the photostability or light-fastness of vanillin in the microemulsion formulation. […] However, this problem could be avoided by the addition of a photostabiliser (Oxynex ST).\nMethod: Each formulation was diluted with water to 0.1% vanillin (as pure) and 5 mL was applied by pipette to a glass petri dish. The dishes were left to stand in a light box fitted with 2×40 W fluorescent daylight bulbs with an illumination intensity of 5000 lux. The dishes were extracted with methanol and made up to 25 mL in a volumetric flask after 3 and 5 days. Samples were then analysed by HPLC."}, "[3]": {"assay": "Light-fastness study, ratio of Oxynex ST:ascorbic acid", "conditions": "0.1% vanillin, 1500 Lux 5 hours per day", "description": "The formulations used for these experiments are described in TABLE 12. Various ratios of Oxynex ST and ascorbic acid were used in the composition to determine the effect on photostability.\nas §1"}}, "data": [{"smiles": "COc1cc(C=O)ccc1O", "note": "[0.1% Vanillin Technical in water, 4-Hydroxy-3-methoxybenzaldehyde]", "values": [{"measurement": "Concentration (mg/dish)", "setting": "[1]; 3 days", "value": 5.64, "unit": "mg/dish"}, {"measurement": "Loss (%)", "setting": "[1]; 14 days", "value": 11.07, "unit": "%"}, {"measurement": "Vanillin", "setting": "[2]; 0 days", "value": 189.36, "unit": "mg/L"}, {"measurement": "Vanillin", "setting": "[2]; 5 days", "value": 173.29, "unit": "mg/L"}, {"measurement": "Vanillin (mg/L) 1", "setting": "[3]; 0 days", "value": 201.28, "unit": "mg/L"}, {"measurement": "Vanillin (mg/L) avg", "setting": "[3]; 0 days", "value": 200.88, "unit": "mg/L"}, {"measurement": "Vanillin (mg/L) 1", "setting": "[3]; 1 day", "value": 198.02, "unit": "mg/L"}, {"measurement": "Vanillin (mg/L) 2", "setting": "[3]; 1 day", "value": 198.95, "unit": "mg/L"}, {"measurement": "Vanillin (mg/L) avg", "setting": "[3]; 1 day", "value": 198.49, "unit": "mg/L"}, {"measurement": "Vanillin (mg/L) 1", "setting": "[3]; 2 days", "value": 198.76, "unit": "mg/L"}, {"measurement": "Vanillin (mg/L) 2", "setting": "[3]; 2 days", "value": 197.78, "unit": "mg/L"}, {"measurement": "Vanillin (mg/L) avg", "setting": "[3]; 2 days", "value": 198.27, "unit": "mg/L"}, {"measurement": "Vanillin (mg/L) 1", "setting": "[3]; 3 days", "value": 196.44, "unit": "mg/L"}, {"measurement": "Vanillin (mg/L) 2", "setting": "[3]; 3 days", "value": 195.47, "unit": "mg/L"}, {"measurement": "Vanillin (mg/L) avg", "setting": "[3]; 3 days", "value": 195.96, "unit": "mg/L"}]}]}
